Experimental findings from US20070026402A1, “Genetic marker of response to atypical antipsychotics and antidepressants methods for use thereof” (priority 2003, published 2007) are described below.

Where two headings read alike, the source gives them in different places.

For data set [1], the system named is schizophrenic patients. The settings on record: A1 subjects.
For data set [2], the system named is schizophrenic patients.

Consider `Cc1nc2n(c(=O)c1CCN1CCC(c3noc4cc(F)ccc34)CC1)CCCC2` [Risperidone], for which the “ESRS Parkinsonism, Dystonia and Dyskinesia: Questionnaire and Behavioral scale, mean score” value in the data set with schizophrenic patients [1] (high dose) is 1.27; with schizophrenic patients [1] (low dose), 4.07. Also, the “ESRS Parkinsonism Physician's Examination score, mean” value with schizophrenic patients [2] (A1 high dose (median dose or above), n=11) came to 2.18; in the data set on schizophrenic patients [2] (A1 low dose (below median dose), n=15), 4.53; in the data set with schizophrenic patients [2] (A2 high dose (median dose or above), n=13) it was 8.54; in the data set with schizophrenic patients [2] (A2 low dose (below median dose), n=8) it was 2.63. Further, in the data set with Serum prolactin (430 mU/l in men, 560 mU/l in women), the “Patients on this medication in the hyperprolactinemic range” value turned out to be 81%. Also, in the data set with Serum prolactin (430 mU/l in men, 560 mU/l in women, 49 patients on Risperidone), the “Number of patients exceeding hyperprolactinemia cut-off levels” value is 40. For the same compound, the “Prolactin levels compared to Typical antipsychotics” value in the data set on Serum prolactin (FIG. 3, P=0.004) is “significantly higher levels of prolactin”.

Regarding `Cc1cc2c(s1)Nc1ccccc1N=C2N1CCN(C)CC1` [Olanzapine], the “Number of patients exceeding hyperprolactinemia cut-off levels” value with Serum prolactin (Clozapine and Olanzapine patients combined) is listed as 7. In the data set on Serum prolactin (Clozapine and Olanzapine patients combined, sample of 144), the “Hyperprolactinemic patients as share of the sample” value was 5%. In addition, the “Prolactin levels compared to Clozapine treatment” value in the data set with Serum prolactin (FIG. 3, P=0.033) was “significantly higher prolactin levels”.
